Results published in patent US12109284B2, “Compositions comprising fluoride and calcium and method for preparing them” (DENTHERAPY LTD, priority 2016, dated 2024).

Tests used:
[1] = Four-day cycling treatment microindentation model (Example 6); parameters: species or system human
Method: A four-day cycling treatment microindentation model to further assess the remineralisation potential for a formulation produced according to the following procedure (referred to as MOF).
Human enamel lesions were treated five times a day for four days with either a MOF formulation with a new batch of OPN-10 (ToothBoost New (2016) OPN), a MOF formulation with an older batch of OPN-10 (ToothBoost Old OPN), a 500 ppm fluoride solution (produced from monofluorophosphate) or deionised water.
The formulations were applied to the enamel lesions using a spray pump with the intention to align the study with prospective in vivo product use. A single actuation of the spray pump delivers approximately 0.15 g of product. The treatment procedure is as follows: • The enamel specimens were placed into artificial saliva at 37° C. for 1 hour before the start of the study. • The enamel specimens were removed from the artificial saliva and gently blotted with tissue paper to remove excess moisture. • The four groups were then selected and placed into a dedicated container, one for each group. • Each enamel specimen was then sprayed with approximately 0.15 g of either MOF new OPN-10, MOF old OPN-10, 500 ppm fluoride solution or deionised water. • The enamel was then returned to the artificial saliva and incubated at 37° C. for 1 hour. • The treatment process was repeated a total of five time in a day. • At the end of the day the enamel was rested in artificial saliva at room temperature. • The treatment process was repeated a total of four days. • After days one, two and four the microhardness of the enamel was measured by microindentation.

[2] = Vickers microindentation of treated erosive lesions, seven days (Example 7); parameters: species or system bovine
Source text: A collaborative study was setup to measure the remineralisation of erosive lesions in bovine enamel after treatment five times a day for seven days. The intention of the study was to 1.
10 mm diameter enamel cores were trepanned from the facial side of bovine incisors and mounted in 25 mm diameter resin discs. The underside of the disc was flattened using p60 grit paper and the enamel side ground with p600 paper to expose the enamel and the surface polished using 1200 and then 2500 grit paper and finally 1 um diamond polish to reveal a highly-polished enamel surface. […]
The microhardness measurements of the enamel was made using a Vickers diamond-tip indenter. Each hardness value was determined from the average of ten individual measurements made centrally on each specimen using 0.2N force over an indent time of 20 seconds. The indent size was measured using ×50 magnification which was then converted to microhardness values.
(§1) An initial microindentation measurement of the sound (non-treated) enamel was first made to ensure the enamel is sufficiently mineralised for the purpose of this study, microhardness acceptance criteria is >350 VHN. […] The enamel specimens were then posted to Calcivis for luminescence measurements and on their return the following treatments were made. […]
The change in microhardness was calculated as a percent of the baseline value. […]

[3] = Calcivis calcium luminescence imaging of treated erosive lesions, seven days (Example 7); parameters: species or system bovine
Source text: The Calcivis Imaging System is a method to measure free calcium ions from within the fluid filled pores of dental enamel. In cases where caries lesions are present, or where acid erosion has taken place, free calcium ion concentration is increased within the pores. This increase in concentration provides a marker for the Calcivis Imaging System to detect active de-mineralisation associated with caries activity and enamel erosion.
Assessment was made by imaging the samples as a monochrome image under visible lighting, followed by a luminescent image obtained by applying 50 μL of freshly reconstituted CALCIVIS photoprotein to the enamel surface in the dark. Any luminescent signal detected by the sensor is therefore a result of the reaction between the photoprotein and free calcium ions on the enamel surface. […]
To allow quantitative analysis of the samples the mean pixel intensity of a 100px radius circle in the centre of the image was measured.
as §1

In the case of monofluorophosphate, the “Change in microhardness as a percentage increase from the acid eroded enamel lesions” value ([1]; Cycle 1) is reported as 6.66%, the “Change in microhardness as a percentage increase from the acid eroded enamel lesions” value ([1]; Cycle 2) is reported as 12.33% and the “Change in microhardness as a percentage increase from the acid eroded enamel lesions” value ([1]; Cycle 4) is reported as 16.85%. For the same substance, the “Change in enamel hardness from eroded enamel” value ([2]; after treatment for seven days) was 25.39%, the “Remineralisation compared to deionised water (negative control)” value ([2]; microindentation, seven days) was “significant remineralisation” and the “Change in enamel luminescence from eroded enamel” value ([3]; after treatment for seven days) was 92.44%. The “Remineralisation compared to deionised water (negative control)” value ([3]; luminescence, seven days) was “significant remineralisation”.
